In one experiment the test system is IL-13, IL-4 and IFN-γ. Briefly: Cytokine expression by ELISA in bronchoalveolar lavage and lung tissues, comparison with CTLA4-Ig (Test Example 5). In kind it is in vivo, BALB/c mice. The conditions noted are these: 10 μg intranasal together with GCE. On the procedure:
The […] obtained by the method of 5) was homogenized using the T-PER tissue protein extraction reagent (Thermo Fisher Scientific, MA, US) to prepare a suspension. The suspension was incubated at 4° C. for 30 minutes and then centrifuged at 2500 rpm for 10 minutes. The supernatant was filtered with a 0.45-μm filter to analyze cytokine expression levels.
The mice reared according to 1) of Experimental methods were used. Specifically, 120 μg of GCE prepared according to 2) of Experimental methods was intranasally administered to the 8-week-old BALB/c mice twice a week for 3 weeks. 10 μg of dNP2-ctCTLA-4 (Example 2), CTLA4-Ig (Comparative Example 4) or a vehicle (PBS) was intranasally administered together when the GCE was administered to the mice.
15 minutes after the experiment was completed, a bronchoalveolar lavage fluid (BALF) was obtained by injecting 1 mL of PBS twice to each animal (see 5) of Experimental methods).
The concentration of IL-13, IL-4 and IFN-γ was analyzed with the ELSISA kit and the result was normalized to the total protein concentration of the tissue. The protein concentration was quantified by the Bradford assay. n=5 per each group and the results are presented as mean±s.e.m. (standard error of mean). *p<0.05, **p<0.01.
Background: ELISA stands for enzyme-linked immunosorbent assay.

For experiment [1], the system named is OVA (ovalbumin)-induced asthma animal model. As to conditions: intravenous or intraabdominal injection; cited from earlier work.
For experiment [2], the system named is GCE-induced allergic asthma animal model. The experiment is described as follows: H&E lung tissue observation and airway epithelial thickness, comparison with CTLA4-Ig (Test Example 5). In kind it is in vivo, BALB/c mice. As to conditions: 10 μg intranasal together with GCE.

Here are results for one substance from patent US20200023036A1, “PHARMACEUTICAL COMPOSITION FOR PREVENTING OR TREATING INFLAMMATORY RESPIRATORY DISEASE CONTAINING FUSION PROTEIN IN WHICH CELL-PENETRATING PEPTIDE AND CTCTLA4 PEPTIDE ARE FUSED AS ACTIVE INGREDIENT” (IUCF-HYU (INDUSTRY-UNIVERSITY COOPERATION FOUNDATION HANYANG, priority 2017, published 2020).

Turning to “Abatacept [CTLA4-Ig, reference compound]”, the “cytokine production as compared to the control group (sham)” value in the experiment with IL-13, IL-4 and IFN-γ is on record as 3 times. In experiment [1], the “suppression of allergic airway inflammation (eosinophil infiltration, Th2 cytokine expression, serum IgE)” value was “effective in suppressing allergic airway inflammation”. Besides, the “physiological features of the respiratory epithelium: cell infiltration and airway epithelium thickening (H&E)” value in experiment [2] was “no inhibition of cell infiltration and airway epithelium thickening”.
